Reference: article PMC8957230 (ADMET & DMPK, 2019)
Where two headings read alike, the source gives them in different places.

What was measured:
[1] = average of two
[2] = Intrinsic dissolution rate; type: physicochemical; details: 25 °C, 0.5 cm^2
[3] = excess cocrystal in water, 25 °C
[4] = Solubility in buffered/non-buffered media; details: 25 °C; for Solubility: average of three determinations
[5] = initial pH 7.9 phosphate buffer

ketoconazole-succinic acid cocrystal
pH h=0 (slurry pH) ([1]; pH 3 phthalate buffer, initial (bulk) pH 2.93): 4.38 | pH h=0 (slurry pH) ([1]; pH 4 phthalate buffer, initial (bulk) pH 3.96): 4.19 | pH h=0 (slurry pH) ([1]; pH 5 neutralized phthalate buffer, initial (bulk) pH 4.97): 4.40 | pH h=0 (slurry pH) ([1]; pH 7 phosphate buffer, initial (bulk) pH 6.97): 4.67 | Dissolution rate constant ([2]; buffers, pH 3 phthalate): 91 μg.min^-1.cm^-2 | Dissolution rate constant ([2]; buffers, pH 4 phthalate): 65 μg.min^-1.cm^-2 | Dissolution rate constant ([2]; buffers, pH 5 phthalate): 48 μg.min^-1.cm^-2 | Dissolution rate constant ([2]; unbuffered media, pH 3 kept constant with HCl or NaOH): 185 μg.min^-1.cm^-2 | Dissolution rate constant ([2]; unbuffered media, pH 4 kept constant with HCl or NaOH): 105 μg.min^-1.cm^-2 | Dissolution rate constant ([2]; unbuffered media, pH 5 kept constant with HCl or NaOH): 62 μg.min^-1.cm^-2 | pH of saturated solution in water [3]: 4.2 | Solubility in water (as ketoconazole equivalents) ([3]; saturated solution pH 4.1 (fumaric) / 4.2 (succinic)): 1.5 mg/mL | pH after equilibration ([4]; initial pH 1.1 (0.1 M HCl)): 2.52± 0.05 | Solubility ([4]; initial pH 1.1 (0.1 M HCl)): 23.99 ± 0.30 mg/mL | pH after equilibration ([4]; initial pH 2.1 HCl/KCl buffer): 3.38 ± 0.00 | Solubility ([4]; initial pH 2.1 HCl/KCl buffer): 3.69 ± 0.07 mg/mL | pH after equilibration ([4]; initial pH 5.0 acetate buffer): 4.60± 0.02 | Solubility ([4]; initial pH 5.0 acetate buffer): 0.38 ± 0.03 mg/mL | pH after equilibration [4, 5]: 7.14 ± 0.01 | Solubility [4, 5]: 0.006 ± 0.001 mg/mL
